This series deals with the molecule itself. The series can be described thus: SEC; Superdex 200 HR 10/30; 20 mM Tris/acetate pH 7.6, 150 mM NaCl, 0.1 mM EDTA, 0.1 mM PMSF, 15 mM beta-mercaptoethanol; 10-120 ug protein in 100 uL loaded; apparent mass from calibration, estimated number of subunits.

B1: human small heat shock protein HspB4 (alphaA-crystallin), wild type (natural protein, UniProt P02489 1-173, looked up)
chain: MDVTIQHPWFKRTLGPFYPSRLFDQFFGEGLFEYDLLPFLSSTISPYYRQSLFRTVLDSGISEVRSDRDKFVIFLDVKHFSPEDLTVKVQDDFVEIHGKHNERQDDHGYISREFHRRYRLPSNVDQSALSCSLSADGMLTFCGPKIQTGLDATHAERAIPVSREEKPTSAPSS
notes: HspB4 (alphaA-crystallin), human; UniProt P02489; Expressed from pET23b; The printed monomeric mass (19.9 kDa) fits the whole protein; also called αA-crystallin; wild type HspB4; source: E. coli BL21(DE3)pLysS, purified (ammonium sulfate fractionation, HiTrap Q HP, Superdex-200 SEC)
As usually defined, the stoichiometry N is the number of molecules, sites or subunits per partner or assembly. B1: the “stoichiometry N” value is ~30 monomers.
